Here are results for two compounds from patent US9575038B2, “Universal detector calibrant” (dated 2017).

The structures appear in SMILES notation. Marks after values point to notes of the source that are not given here.

The subject of test [1] is detection canines. The test is described as follows: Odor Recognition Test After Training.
Test [2] has as its system detection canines. The test is described as follows: Odor Recognition Test Before Training (canines untrained on 1-BO, controlled odor permeation system).
The test system of test [3] is detection canines. The test is described as follows: Field Testing with PFTBA Training (double-blind presentation of PFTBA sample and blank).

For `CCCCCCCCBr`, the “training of detection canines to alert to the compound” value with detection canines [1] is on record as “successfully trained to alert”. The “Successfully Imprinted” value in the test with detection canines [1] (Drug detection canines (n = 3)) and with detection canines [1] (Explosives detection canines (n = 5)) was 100% throughout. Also, the results for the “No Alert (%)” value with detection canines [2] (Accelerant detection canines (n = 2)), in the test with detection canines [2] (Drug detection canines (n = 13)) and in the test with detection canines [2] (Explosives detection canines (n = 22)) were 100%, 100% and 86%, respectively. Further, the “Interest (%)” value in the test with detection canines [2] (Explosives detection canines (n = 22), canine is not odor discriminating) is 9* %. In the test on detection canines [2] (all tested canines), the “alert of untrained canines to the compound” value is recorded as “did not alert”.

As for `FC(F)(F)C(F)(F)C(F)(F)C(F)(F)N(C(F)(F)C(F)(F)C(F)(F)C(F)(F)F)C(F)(F)C(F)(F)C(F)(F)C(F)(F)F`, the “% Alert” value in the test with detection canines [3] (two canines (nos. 136 and 143) after three days of imprint, gauze in LDPE bag) came out at 100%. Moreover, the “canine identification of the sample” value in the test with detection canines [3] (two canines, versus blank sample) was “correctly identified and altered to the PFTBA sample”.
